# According to publication PMC10706087, “The Subtype Selectivity in Search of Potent Hypotensive Agents among 5,5-Dimethylhydantoin Derived α1-Adrenoceptors Antagonists” (International Journal of Molecular Sciences, 2023):
# Where a name gives a salt, the structure may show the parent alone.
# Biological target: T1, human adrenergic receptor α1A (Homo sapiens, UniProt P35348)
# T1 sequence (P35348 1-466): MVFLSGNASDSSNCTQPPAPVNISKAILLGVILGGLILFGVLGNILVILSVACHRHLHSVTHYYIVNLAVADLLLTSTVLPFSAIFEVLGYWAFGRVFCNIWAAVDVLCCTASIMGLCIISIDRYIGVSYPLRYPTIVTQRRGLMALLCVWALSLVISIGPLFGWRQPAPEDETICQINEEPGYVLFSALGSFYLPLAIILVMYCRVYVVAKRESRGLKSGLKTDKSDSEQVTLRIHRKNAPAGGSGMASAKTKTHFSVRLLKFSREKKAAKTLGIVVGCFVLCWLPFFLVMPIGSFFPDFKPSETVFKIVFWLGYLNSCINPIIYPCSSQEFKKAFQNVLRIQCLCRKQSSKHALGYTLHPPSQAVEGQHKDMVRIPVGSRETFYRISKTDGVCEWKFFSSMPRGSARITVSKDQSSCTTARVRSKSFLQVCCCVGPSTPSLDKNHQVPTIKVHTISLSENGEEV
# Experiment: Intrinsic activity, aequorin luminescence functional assay at α1A-AR
# Type: cell-based
# Conditions: agonist/antagonist profile
# Experimental: The subtype selectivity for α1A and α1B was calculated as IC50(α1B-AR)/IC50(α1A-AR) and IC50(α1A-AR)/IC50(α1B-AR) ratio, respectively.
# Intrinsic activity at the α1-AR subtypes studies were performed using the cells expressing mitochondrially-targeted aequorin and one of the human adrenergic receptor α1A or α1B (PerkinElmer, Boston, MA, USA), according to the manufacturer’s instructions. For measurement, frozen cells were thawed and re-suspended in 10 mL of assay buffer containing 5 μM “Coelenterazine h”. This cell suspension was put in a 10 mL Falcon tube, fixed onto a rotating heel, and incubated overnight at rt in the dark (8 rpm; 45° angle). Cells were diluted with Assay Buffer to 5000 cells/20 μL. […] The light emitted was recorded for 20 s. […] Luminescence was measured using the multidetection microplate reader (POLARstar Omega, BMG LABTECH, Ortenberg, Germany).
# All statistics were performed using GraphPad Prism, Version 6.0 (GraphPad Software, San Diego, CA, USA). In the radioligand binding study, data were analyzed by a one-site curve-fitting equation, and inhibition constants (Ki) values were calculated via the Cheng-Prusoff equation [63]. In functional studies, data were analyzed using a sigmoidal dose-response (variable slope) equation. Arterial blood pressure data were analyzed using a two-way ANOVA with Sidak’s post-hoc test for multiple comparisons. […]
smiles,measurement,value
"COc1cc2nc(N3CCN(C(=O)c4ccco4)CC3)nc(N)c2cc1OC [Prazosin, prazosin hydrochloride, reference compound]",α1A-AR Profile,Antagonist
